In patent publication US12398109B2, “2-amino-2-(1,2,3-triazole-4-yl)propane-1,3-diol derivative of novel compound for directly inhibiting ASM activity, and use thereof” (KYUNGPOOK NATIONAL UNIVERSITY INDUSTRY-ACADEMIC COOPERATION …, priority 2018, dated 2025) one finds activity and anxiety and activity of astrocytes data, which are given here for one molecule.

The subject of one test is APP/PS1 mouse. Briefly: Open field test and dark & light test in APP/PS1 mouse. The format is in vivo. The following applies: SCNPA 100 mg/kg/day, FTY720 1 mg/kg/day. As for the experimental part:
In order to confirm a potential effect on learning and memory, a Morris Water Maze (MWM) test was performed. In the MWM, the mouse learned a task 4 times a day for 10 days, a platform was removed on day 11, and aprobe trial was performed. To evaluate activity and anxiety, an open field test and a dark and light test were performed. In the open field test, the mouse was placed in a quadrangular box for 10 minutes and then overall activity and a time spent to move around a wall side and a center were measured. In the dark and light test, the mouse was placed in a quadrangular box consisting of a dark box and a light box for 10 minutes, and a time staying in each box, the number of reciprocating the boxes, and a time to first enter into a light box were measured.
In addition, an open field test and a dark & light test were conducted to confirm an effect of the ASM inhibitory compounds on activity and anxiety.

The test system of the next test is astrocytes (GFAP). Briefly: Astrocytes (GFAP) in brain of APP/PS1 mouse. As to conditions: in vivo.

With `CCCCCCCCCn1cc(C(N)(CO)CO)nn1` [SCNPA201, 2-amino-2-(1-nonanyl-1H-1,2,3-triazol-4-yl)propane-1,3-diol], the activity and anxiety entry with APP/PS1 mouse is listed as “improved”. Further, the activity of astrocytes result with astrocytes (GFAP) is recorded as “significantly decreased”.
